Measurements reported in paper PMC11315827 (Drugs in R&D, 2024).

Amino acid sequences for entries named in this document (tags omitted). A change or cut given only in a name is not applied to a line headed by its entry.
UniProt Q06187: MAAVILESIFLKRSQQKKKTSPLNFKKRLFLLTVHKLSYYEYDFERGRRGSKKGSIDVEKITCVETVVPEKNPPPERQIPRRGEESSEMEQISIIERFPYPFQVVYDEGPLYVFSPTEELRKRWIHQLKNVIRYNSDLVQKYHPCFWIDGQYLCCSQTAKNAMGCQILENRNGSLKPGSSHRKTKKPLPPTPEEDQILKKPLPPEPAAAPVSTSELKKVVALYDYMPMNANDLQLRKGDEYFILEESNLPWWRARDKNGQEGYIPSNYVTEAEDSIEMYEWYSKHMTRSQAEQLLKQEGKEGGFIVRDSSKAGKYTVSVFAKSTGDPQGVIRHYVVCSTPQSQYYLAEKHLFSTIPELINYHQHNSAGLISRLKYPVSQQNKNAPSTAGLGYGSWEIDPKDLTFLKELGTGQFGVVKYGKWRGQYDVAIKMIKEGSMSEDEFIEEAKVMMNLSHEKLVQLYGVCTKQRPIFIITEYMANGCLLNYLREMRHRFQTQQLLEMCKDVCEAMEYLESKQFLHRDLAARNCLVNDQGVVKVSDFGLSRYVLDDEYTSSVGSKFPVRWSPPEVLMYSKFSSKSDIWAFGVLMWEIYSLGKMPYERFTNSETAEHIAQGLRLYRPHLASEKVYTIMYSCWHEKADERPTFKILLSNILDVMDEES

Experiments:
[1] = pwMS, single timepoint 2-h post-administration; cited from earlier work
[2] = Nonhuman primate PK study, plasma and CSF; settings: oral 10 mg/kg
BTK [3] = target: T1, BTK (Homo sapiens, UniProt Q06187); assay: biochemical
BTK [4] = target: T1, BTK; assay: Microfluidic kinetic assay of BTK phosphotransferase activity

Row | SMILES | CSF concentration [1] | CSF Cmax [2] [nM] | IC50 (BTK [3]) [nM] | Ki (BTK [4]) [nM]
1 | C=CC(=O)N1CCC(CNc2ncnc(N)c2-c2ccc(Oc3ccccc3)cc2)CC1 [Evobrutinib] | 3.2 ng/mL and 7.45 nM | 7.45 | – | –
2 | C[C@H]1CN(C2COC2)CCN1c1ccc(Nc2cc(-c3ccnc(N4CCn5c(cc6c5CC(C)(C)C6)C4=O)c3CO)cn(C)c2=O)nc1 [Fenebrutinib] | – | – | 6.21 | 4.7

Values joined by “and” are separate entries in the source; they are usually repeats but may differ in a detail not shown here. Equal values may be shown once.
